Molecular target: Adenosine receptor A1 (Rattus norvegicus) (UniProt P25099)
Assay: Antagonist activity against adenosine A1 receptor in rat adipocytes

Work on CCCn1c(=O)c2nc(C3CC3)[nH]c2n(CCC)c1=O yielded a Ki of 42 nM.

Source: ChEMBL document CHEMBL1125093, “Structure-activity relationships of 8-cycloalkyl-1,3-dipropylxanthines as antagonists of adenosine receptors” (J Med Chem, 1990)
